# Experimental data: PubChem BioAssay AID463141 (The Scripps Research Institute Molecular Screening Center, 2010)
# By UniProt entry, the sequences of proteins in these tests, tags left out. Where a name states a change or a piece, a line headed by the entry shows the natural chain unless it says otherwise.
# UniProt P42574: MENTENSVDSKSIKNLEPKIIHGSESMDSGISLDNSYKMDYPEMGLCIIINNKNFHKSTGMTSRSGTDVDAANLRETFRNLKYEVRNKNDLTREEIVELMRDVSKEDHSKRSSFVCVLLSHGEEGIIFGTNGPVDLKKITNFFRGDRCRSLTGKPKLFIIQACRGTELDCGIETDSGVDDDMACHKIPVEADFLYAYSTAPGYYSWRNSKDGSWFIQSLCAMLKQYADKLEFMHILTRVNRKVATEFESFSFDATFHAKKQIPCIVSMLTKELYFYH
# The list shows a part of the results, in another mix than the full data. Activity calls are given as the source filed them.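 How the source made its calls: active means activation above the mean of all tested compounds plus 3 SD (cut at about 21% in these data); inactive means the rest.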
# Molecular target: Caspase-3 (Homo sapiens) (UniProt P42574)
# Test: procaspase-3 enzyme activation – biochemical, absorbance, PC-3 D3A mutant, single concentration, primary screen (AID 463141);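 further: 0% = DMSO alone and 100% = DMSO wells spiked with extra 5 µM PC-3 D3A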
# Settings: recombinant procaspase-3 D3A, Ac-DEVD-pNA absorbance 405 nm; at 8.5 µM; hits give high values
row,Structure (SMILES),activation
1,CC(NC(=O)COC(=O)C(O)(c1ccccc1)c1ccccc1)c1ccccc1 (stereo unspecified),inactive: 3.73%
2,Cc1ccccc1OP(=O)(Nc1ccccn1)Oc1ccccc1C,inactive: -4.05%
3,CN(C)C(=O)Oc1noc2ccccc12,inactive: -8.55%
4,O=C(OC1CN2CCC1CC2)c1ccccc1 (stereo unspecified),inactive: -1.69%
5,CCC(=O)N1C2C3N(C(=O)CC)C1C1N(C(=O)CC)C(C(N1C(=O)CC)N3C(=O)CC)N2C(=O)CC,inactive: 0.67%
6,COC(=O)c1cc2c(s1)N=C(c1ccccc1)N(C)P2(=O)N1CCOCC1 (stereo unspecified),inactive: 5%
7,Cc1ccc(OP(=O)(Nc2ccccn2)Oc2ccc(C)cc2)cc1,inactive: -0.3%
8,CC(=O)NC(SC(=S)N(CC(C)C)CC(C)C)C(Cl)(Cl)Cl (stereo unspecified),inactive: -1.88%
9,c1ccc(-c2nn[nH]n2)c(-c2nn[nH]n2)c1,inactive: 2.95%
10,CCOC(=O)NC(Sc1ccccc1)C(Cl)(Cl)Cl (stereo unspecified),inactive: 7.7%
11,Cc1ccc(NP(=O)(Oc2cccc(C)c2)Oc2cccc(C)c2)nc1,inactive: -4.05%
12,O=C(NC1CCS(=O)(=O)C1)NP(=S)(Oc1ccccc1)Oc1ccccc1 (stereo unspecified),inactive: 6.44%
13,CCNC(=S)/N=C(\N)N[N+](=O)[O-],inactive: 2.69%
14,CC(=O)Nc1ccc([As](=O)(O)O)c(O)c1,inactive: 2.34%
15,CC(=O)Nc1ccc(Oc2c([N+](=O)[O-])cc([N+](=O)[O-])cc2[N+](=O)[O-])cc1,inactive: 3.38%
16,Cc1ccccc1CN(C)C(=O)COC(=O)C(O)(c1ccccc1)c1ccccc1,inactive: -3.45%
17,C[C@H]1OP(=O)(Oc2ccccc2)C[C@@H]2O[C@@H]21 (stereo partly specified),inactive: 7.94%
18,C[C@@H]1C=CCP(=O)(Oc2ccccc2)O1 (stereo partly specified),inactive: 6.48%
19,CC(=O)c1ccc(N2CC2c2ccncc2)cc1 (stereo unspecified),inactive: -7.74%
20,CC(C)(C)C(=O)NC(Sc1ccccc1)C(Cl)(Cl)Cl (stereo unspecified),inactive: -3.56%
21,O=P1(Nc2nc3ccc(Cl)cc3s2)COc2ccccc2O1 (stereo unspecified),inactive: 0.3%
22,CCOc1ccc(C2=NCC(CBr)S2)cc1 (stereo unspecified),inactive: -7.09%
23,c1nnnn1CCn1cnnn1,inactive: 6.11%
24,O=P(Nc1nccs1)(c1ccccc1)c1ccccc1,inactive: -2.56%
25,CC(C)C(=O)NC(Sc1ccccc1)C(Cl)(Cl)Cl (stereo unspecified),inactive: 11%
26,O=C(OC1CN2CCC1CC2)c1cccc(Cl)c1 (stereo unspecified),inactive: -1.36%

row,Structure (SMILES),activation
1,C(Cc1nn[nH]n1)Cc1nn[nH]n1,inactive: -1.08%
2,Nc1ccc([As](=O)(O)c2ccc([N+](=O)[O-])cc2)cc1,inactive: 4.9%
3,O=[As](O)(c1ccccc1)c1ccc(O)cc1,inactive: 0.27%
4,O=[N+]([O-])c1ncn(CCn2cnc([N+](=O)[O-])n2)n1,inactive: 3.6%
5,CC(=O)NC(SC(=S)N(C)C)C(Cl)(Cl)Cl (stereo unspecified),inactive: -7.64%
6,O=[N+]([O-])c1ccc(O)c(/C=N/Nc2ccc([N+](=O)[O-])cc2[N+](=O)[O-])c1,inactive: -0.81%
7,O=P(Nc1nc2ccccc2s1)(c1ccccc1)c1ccccc1,inactive: -1.38%
8,C[C@H]1OP(=O)(Oc2ccccc2)[C@H](O)[C@H](O)[C@H]1N=[N+]=[N-] (stereo partly specified),inactive: 1.33%
9,CN(C)C1(CNC(=O)c2ccc(Cl)c(S(N)(=O)=O)c2)CCCCC1,inactive: 5.96%
10,O=P(Nc1ccccn1)(c1ccc(Br)cc1)c1ccc(Br)cc1,inactive: -0.17%
11,O=[N+]([O-])c1cccc(NC2=NCC(CBr)S2)c1 (stereo unspecified),inactive: -10.4%
12,O=[N+]([O-])c1ncn(CCn2ncnc2[N+](=O)[O-])n1,inactive: 3.2%
13,CC(C)(C)C(=O)NC(Sc1ccncn1)C(Cl)(Cl)Cl (stereo unspecified),inactive: -17.4%
14,O=C(Nc1cc([As](=O)(O)O)ccc1O)c1ccccc1,inactive: 3.5%
15,CC1CCN(C(=O)Oc2c(Cl)cc(Cl)c3cccnc23)CC1,inactive: -2.76%
16,CC(C)=N/N=C(\N)N[N+](=O)[O-],inactive: 1.6%
17,CN(C)C(=O)OCCc1n(C)cc[n+]1C,inactive: -12.6%
18,CCN(/C(=N/P(=O)(N1CCOCC1)N1CCOCC1)N1CCOCC1)c1ccc(OC)cc1,inactive: 6.06%
19,Nc1ccc([As](=O)(O)c2ccc(N)cc2)cc1,inactive: 2.4%
20,C[N+]1=C2C=CC=CC=C2SC12C([N+](=O)[O-])=CC([N+](=O)[O-])=C[C-]2[N+](=O)[O-] (stereo unspecified),inactive: -27.9%
21,Cc1ccc(NP(=O)(Oc2ccccc2)Oc2ccccc2)nc1,inactive: -5.67%
22,O=[N+]([O-])c1cc([N+](=O)[O-])c(CCNc2ccccc2)c([N+](=O)[O-])c1,inactive: -10%
23,CCc1nc2c(n1)c1c(non1O)c1c2no[n+]1[O-],inactive: 1.54%
24,CC(=O)N1C2C3N(C(C)=O)C1C1N(C(C)=O)C(C(N1C(C)=O)N3C(C)=O)N2C(C)=O,inactive: 5.77%
25,O=[N+]([O-])c1cccc2n[nH]nc12,inactive: 12.8%
26,COc1ccc(C2=NCC(CBr)S2)cc1 (stereo unspecified),inactive: -10.5%

row,Structure (SMILES),activation
1,Oc1ccccc1CNc1ccccn1,inactive: -2.51%
2,O=C(NC(Sc1ccncn1)C(Cl)(Cl)Cl)c1ccccc1 (stereo unspecified),inactive: -25.4%
3,Cc1c2non([O-])c-2c(C)[n+](=O)[n+]1[O-],inactive: -23.9%
4,Nc1cc(N)c2nonc2c1[N+](=O)[O-],inactive: 8.21%
5,CC(C)CC(=O)NC(Sc1ccc(Cl)cc1)C(Cl)(Cl)Cl (stereo unspecified),inactive: 3.51%
6,CN1CCCC(OC(=O)C(c2ccccc2)c2ccccc2)C1 (stereo unspecified),inactive: 0.34%
7,Clc1ccc(Cl)c(NC2=NCC(CBr)S2)c1 (stereo unspecified),inactive: -1.68%
8,COc1ccccc1OP(=O)(Nc1ccc(C)cn1)Oc1ccccc1OC,inactive: -3.37%
9,Cc1ccc(OP(=O)(Nc2nccs2)Oc2ccc(C)cc2)cc1,inactive: -8%
10,CN(C(=O)Cc1ccc(Cl)c(Cl)c1)[C@H]1CCCC[C@H]1N1CCCC1,inactive: 0.79%
11,Cc1ccc(N/C(=N/P(=O)(N2CCOCC2)N2CCOCC2)N2CCOCC2)cc1,inactive: 15.6%
12,NC(=O)c1cc([N+](=O)[O-])cc([N+](=O)[O-])c1N,inactive: 0.63%
13,CCN(N=Nc1nonc1N)c1nonc1N,inactive: 3.45%
14,O=[N+]([O-])c1cc([N+](=O)[O-])c(CCN2CCOCC2)c([N+](=O)[O-])c1,inactive: 0.34%
15,Cc1cc(SC(NC(=O)c2ccc(F)cc2)C(Cl)(Cl)Cl)ncn1 (stereo unspecified),inactive: -31.2%
16,CCOP(=O)(Nc1ccccc1)OCC,inactive: -7.25%
17,CN(C(=O)Cc1ccc(Cl)c(Cl)c1)[C@H]1CCCC[C@@H]1N1CCCC1,inactive: 6.94%
18,Cc1ccc(NP(=O)(Oc2ccccc2F)Oc2ccccc2F)nc1,inactive: -4.85%
19,O=P(Nc1nc2ccc(Cl)cc2s1)(c1ccccc1)c1ccccc1,inactive: 2.27%
20,CC(=O)Nc1ccc([As](=O)(O)O)cc1,inactive: 2.62%
21,O=C(O)c1ccccc1[As](=O)(O)O,inactive: 2.09%
22,CC(C)NC(=O)NP(=O)(Oc1ccccc1)Oc1ccccc1,inactive: 4.98%
23,CCN(CC)C(=S)SC(NC=O)C(Cl)(Cl)Cl (stereo unspecified),inactive: -6.48%
24,O=[N+]([O-])c1cc([N+](=O)[O-])c(-c2ccn[nH]2)s1,inactive: 4.32%
25,ClCCSc1nnc(-c2cccnc2)o1,inactive: 7.95%
26,CC(C)c1ccc(OP(=O)(Nc2ccccn2)Oc2ccccc2F)cc1 (stereo unspecified),inactive: 0.71%

row,Structure (SMILES),activation
1,Cc1ccc(OP(=O)(Nc2ccc([N+](=O)[O-])cn2)Oc2ccc(C)cc2)cc1,inactive: 0.33%
2,Cc1ccc2nc3c(c(C)c2c1)CC(C(Cl)Cl)S3 (stereo unspecified),inactive: 5.19%
3,C[As](=O)(O)c1cccc(C(=O)O)c1,inactive: -3.34%
4,O=[As](O)(c1ccc(O)cc1)c1ccccc1O,inactive: -4.2%
5,COc1cc(C(=O)NCC2(N3CCOCC3)CCCCC2)ccc1OCC(C)C,inactive: 11.7%
6,COc1ccc(N/C(=N/P(=O)(N2CCOCC2)N2CCOCC2)N2CCOCC2)cc1,inactive: 1.14%
7,COc1ccc2nc(NP(=O)(c3ccccc3)c3ccccc3)sc2c1,inactive: -3.51%
8,COc1cc(I)ccc1[As](=O)(O)O,inactive: -5.3%
9,Cc1c2c(nc3ccccc13)SC(C(Cl)Cl)C2 (stereo unspecified),inactive: -1.11%
10,O=C(OC1CN2CCC1CC2)C12CC3CC(CC(C3)C1)C2 (stereo unspecified),inactive: 10.3%
11,Cc1cc(=O)[nH]c(N[N+](=O)[O-])n1,inactive: -9.42%
12,CCC(C)N(CC(C)C)C(=S)SC(NC(C)=O)C(Cl)(Cl)Cl (stereo unspecified),inactive: -0.94%
13,O=C(OC1CN2CCC1CC2)c1cccc([N+](=O)[O-])c1 (stereo unspecified),inactive: 7.76%
14,CCOC(=O)c1ccc(NC(=O)C(C)(CCl)SC)cc1 (stereo unspecified),inactive: -11.1%
15,O=C(COc1ccccc1)OC1CN2CCC1CC2 (stereo unspecified),inactive: 1.2%
16,O=C(Nc1ccncc1[N+](=O)[O-])c1ccc([N+](=O)[O-])cc1[N+](=O)[O-],inactive: 9.89%
17,COP1(=S)c2c(C)nn(CCC#N)c2N=C(c2ccc(F)cc2)N1C (stereo unspecified),inactive: -2%
18,Cc1cc(SC(NC=O)C(Cl)(Cl)Cl)ncn1 (stereo unspecified),inactive: -20.1%
19,O=P(Nc1ccccn1)(c1cccc2ccccc12)c1cccc2ccccc12,inactive: -6.35%
20,CCOC(=O)Nc1cccc([As](=O)(O)O)c1,inactive: -2.23%
21,Cc1cc(SC(NC(=O)c2ccccc2)C(Cl)(Cl)Cl)nc(C(C)C)n1 (stereo unspecified),inactive: -13.1%
22,CCOC(=O)Nc1ccc([As](=O)(O)O)c(O)c1,inactive: -7.3%
23,Nc1cccc([As](=O)(O)c2ccccc2)c1,inactive: 5.25%
